Test results published in patent US8481547B2, “Substituted benzothiazole and benzoxazole derivatives useful as inhibitors of DPP-1” (Janssen Pharmaceutica NV, priority 2009, dated 2013).

Amino acid sequences for entries named in this document (tags omitted). Residues count along the entry.
UniProt P53634, 25-463 limits assumed: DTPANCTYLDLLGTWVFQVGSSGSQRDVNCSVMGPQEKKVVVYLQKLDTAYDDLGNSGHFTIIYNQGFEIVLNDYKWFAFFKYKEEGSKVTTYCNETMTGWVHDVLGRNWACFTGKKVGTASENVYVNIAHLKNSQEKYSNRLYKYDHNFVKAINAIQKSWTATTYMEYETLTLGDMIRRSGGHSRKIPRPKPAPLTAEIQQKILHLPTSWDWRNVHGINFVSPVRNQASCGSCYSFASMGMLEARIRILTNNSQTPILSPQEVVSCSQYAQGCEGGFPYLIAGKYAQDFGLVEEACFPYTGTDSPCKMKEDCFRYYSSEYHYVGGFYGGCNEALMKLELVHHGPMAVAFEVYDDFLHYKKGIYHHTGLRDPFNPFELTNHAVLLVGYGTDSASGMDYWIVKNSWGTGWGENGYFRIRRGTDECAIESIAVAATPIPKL

Target: recombinant human DPP-1 (Cathepsin C) (Homo sapiens, UniProt P53634)
Assay: DPP-1 Inhibition Assay (In Vitro)
Details: read-out: DPP-1 Inhibition IC50, fluorogenic substrate GR-AMC 10 uM, 0.15 nM DPP-1, pH 7.0, room temperature, average value where tested multiple times
Method: Test compounds were assessed for DPP-1 (Cathepsin C) inhibitory activity using a fluorogenic substrate, GR-AMC (Glycine-Arginine-amino-4-methylcoumarin, Bachem, 1-1215). The amount of amino-methylcoumarin released is proportional to the DPP-1 activity, and the reaction is monitored kinetically with a Molecular Devices plate reader using black 96-well plates.
All compounds were tested under room temperature conditions. The assay buffer consisted of 50 mM HEPES, pH 7.0, 100 mM NaCl, 2 mM glutathione (GSH), and 0.002% TWEEN 20. GSH and TWEEN 20 were added to the buffer fresh daily. Just prior to use, an in-house preparation of recombinant human DPP-1 (240 μM stock, MW 49.6 kD) was diluted 600-fold in assay buffer containing fresh 2 mM dithiothreitol (DTT) to activate the enzyme, then diluted into assay buffer (without DTT) 133-fold for a DPP-1 working solution of 3 nM. […]
Additions to a 96-well black Costar 3915 plates were as follows: 90 μL of 11 μM GR-AMC, 5 μL test compound (followed by mixing), and 5 μL 3 nM DPP1 to start the reaction. Fluorescent reactions were monitored kinetically at 360 nm excitation, 440 nm emission on a Molecular Devices Spectramax XPS reader. The Softmax Pro software of the reader determined the initial velocity of the selected data (the first 3-5 minutes of the reaction), and the best linear regression fit of the initial kinetic data. […]

Compound | IC50 (tested form: HCl) | IC50
COCCCNC(=O)c1ccc2nc(N3CCN(C(=O)[C@@H](N)Cc4cccs4)CC3)sc2c1 | 1100 nM | –
N[C@@H](Cc1cccs1)C(=O)N1CCN(c2nc3ccc(-c4cc(Cl)cc(Cl)c4)cc3s2)CC1 | – | 1500 nM

Read-outs that look alike come from different tables or passages of the source.
